The record followed here is patent US10792377B2, “Compounds and method for imaging cancer” (Vanderbilt University, priority 2017, dated 2020).

For this assay, the target named is T1, murine COX-2 (Mus musculus, UniProt Q05769).
T1 sequence (Q05769 18-604): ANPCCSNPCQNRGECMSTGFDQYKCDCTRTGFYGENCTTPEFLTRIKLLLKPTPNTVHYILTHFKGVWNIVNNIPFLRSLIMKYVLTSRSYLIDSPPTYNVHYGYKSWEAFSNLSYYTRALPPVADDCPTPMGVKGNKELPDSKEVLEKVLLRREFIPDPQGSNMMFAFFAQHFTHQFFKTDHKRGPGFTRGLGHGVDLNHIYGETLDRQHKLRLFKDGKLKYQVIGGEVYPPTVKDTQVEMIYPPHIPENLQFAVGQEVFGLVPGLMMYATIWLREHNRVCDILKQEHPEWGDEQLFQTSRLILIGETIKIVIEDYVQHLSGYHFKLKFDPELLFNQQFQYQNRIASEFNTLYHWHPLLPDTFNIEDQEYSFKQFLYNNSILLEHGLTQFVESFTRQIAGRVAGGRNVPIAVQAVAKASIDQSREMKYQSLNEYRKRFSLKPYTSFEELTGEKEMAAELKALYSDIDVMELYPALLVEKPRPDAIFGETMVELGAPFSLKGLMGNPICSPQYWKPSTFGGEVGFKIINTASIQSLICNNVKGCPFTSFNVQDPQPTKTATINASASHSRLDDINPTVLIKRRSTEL
The assay is described as follows: In vitro purified COX-2 inhibition assay (TLC, 14C-arachidonic acid). The format is biochemical. Particulars: high throughput screening of fluorocoxib and chemocoxib libraries. As for the experimental part:
The in vitro cyclooxygenase (ovine COX-1 or human COX-2) inhibitory activities of these probes were tested by a previously described TLC assay (FIGS. 19-21). Briefly, reaction mixtures of 200 μL consisted of hematin-reconstituted protein in 100 mM Tris-HCl, pH 8.0, 500 μM phenol, and [1-^14C]arachidonic acid (50 μM, about 55-57 mCi/mmol, Perkin Elmer).
Inhibition Assay Using Purified COX-1 and COX-2. Inhibition of purified ovine COX-1 or mouse COX-2 by test compounds was assayed by a previously described method, which quantifies the conversion of [1-^14C]arachidonic acid to [1-^14C]prostaglandin products. Reaction mixtures of 200 ∝L consisted of hematin-reconstituted protein in 100 mM Tris-HCl, pH 8.0, 500 μM phenol, and [1-^14C]arachidonic acid (50 μM, ˜55-57 mCi/mmol, Perkin Elmer). For the time-dependent inhibition assay, hematin-reconstituted COX-1 ([…]) was preincubated at 25° C. for 17 min and 37° C. for 3 min with varying inhibitor concentrations in dimethylsulfoxide followed by the addition of [1-^14C]arachidonic acid (50 μM) for 30 s at 37° C. Reactions were terminated by solvent extraction in diethyl ether:methanol:1 M citrate buffer, pH 4.0 (30:4:1). […] Radiolabeled products were quantified with a radioactivity scanner (Bioscan, Inc., Washington, D.C.). […]

In general, IC50 refers to the concentration needed to halve the response being measured. A lower IC50 goes with higher potency.

As for `COc1ccc2c(c1)c(CC(=O)NCCCCNC(=O)CCC(=O)O[C@H]1c3cc4c(cc3[C@@H](c3cc(OC)c(OC)c(OC)c3)[C@H]3C(=O)OC[C@@H]31)OCO4)c(C)n2C(=O)c1ccc(Cl)cc1` [chemocoxib A, reference compound], the IC50 was determined as 290 nM.
